# How the values were obtained:
# [1] = Normal-phase TLC on silica gel 60 F254 (Rf); format: physicochemical; conditions: pH 7.4
# [2] = Reversed-phase TLC on RP-2 silanized plates (Rf); format: physicochemical; conditions: pH 7.4
# [3] = entering the CNS / not entering the CNS; ref Drugbank [36]; cited from earlier work
# [4] = in vivo; cited from earlier work
# [5] = cited from earlier work
Compound,NP (Rf from NP TLC plate) [1],RP (Rf from RP-2 TLC plate) [2],CNS+/- [3],"Kp,uu,brain (unbound brain-to-plasma drug partition coefficient) [4]",PB (protein binding) [5]
CN1C(=O)CN=C(c2ccccc2)c2cc(Cl)ccc21 [diazepam],0.95,0.77,,,
NCC1(CC(=O)O)CCCCC1 [gabapentin],,,1,,
Cc1nc2n(c(=O)c1CCN1CCC(c3noc4cc(F)ccc34)CC1)CCCC2 [risperidone],0.29,0.62,,0.21,
Cc1cc2c(s1)Nc1ccccc1N=C2N1CCN(C)CC1 [olanzapine],0.28,0.53,,2.13,0.175
